# Data as given in PubChem BioAssay AID652025 (National Center for Advancing Translational Sciences (NCATS), 2013).
# This is a selection; strong and weak results do not stand in their true shares. The source made the active and inactive calls. No stated cut-off is given here; in the data, active means activation above about 50%; inconclusive means mostly about 30% to 49%; inactive means weaker than that.
# Assay: qHTS of IL-2 Activators; further: 0% is about no effect
# Settings: IL-2 activation reporter assay, cell-based qHTS; active compounds read high; in transgenic mouse T cells; stimulated with anti-CD3/CD4/CD28 beads
# Text: The adaptive immune response against any infectious agent begins with the activation of an antigen specific T cell. This relatively rare and inert ("naive") T cell undergoes a massive proliferative expansion and differentiation process to generate sufficient number of potent pathogen-specific effector T cells. The effector T cells fight the infection by making cytokines and helping other cells to become fully armed as well. If any naive T cell has antigen receptors (TCRs) that can be activated by self peptides, then a variety of regulatory mechanisms kick in to prevent this cell from performing to its full potential. These processes collectively constitute the phenomenon of immunological tolerance and their failure leads to autoimmunity. One arm of tolerance involves generation of biochemical negative feedback downstream of the TCR (tuning). This is especially relevant to self antigens present in the body over long periods of time (chronic), which form the bulk of our proteome. The negative feedback serves to tune the TCR signaling, such that the ambient antigenic stimulation is nullified intracellularly. Unfortunately, this critical machinery serves as a target for chronic viral, bacterial and parasitic infections (as well as tumors), which can evade a robust immune response, simply by allowing T cells to tune down their signaling to pathogen or malignancy derived antigens. As such, disrupting the tuning in such cases would allow the tolerant T cell to function again and deliver a robust effector response.
# If a therapeutic can restore responsiveness to the tuned down T cell, even for a short time, they could combat the pathogen without any additional immunization. To that end, we have developed a sensitive HTS T cell based assay based on IL-2. This assay will be screened against the Molecular Libraries Small Molecule Repository (MLSMR) to find small molecules that could elicit this response.
# NIH Chemical Genomics Center [NCGC]
# NIH Molecular Libraries Probe Centers Network [MLPCN]
# Assay Submitter (PI): Ron Schwartz, NIAID
# 4 microL (750 cells/well) of unstimulated transgenic mouse T cells (columns 1-3,5-48) are dispensed into Aurora LoBase, black clear-bottom 1536-well assay plates; column 4 receives an identical concentration of transgenic memory T cells as a non-tolerant control. Compounds are then transferred via Kalypsys pin tool equipped with 1536-pin array (10 nL slotted pins, V&P Scientific, San Diego, CA). Following addition of compound and a 60 minute incubation, 1 microL of bead stimulation solution ((0.04 micron Fluospheres (Life technologies, CA) coated with 10ug/ml each anti-CD3 and anti-CD4 (clones 2C11 and GK1.5, BD Biosciences, CA) and mixed with 1ug/ml anti-CD28 (clone PV-1, BD biosciences, CA)). columns 2-48) is added to stimulate the IL-2 response pathway; media is instead added to column 1 as an unstimulated control, while PMA/ionomycin (Sigma Aldrich, MO) is added to column 3 as a control for IL-2 tolerance bypass. The plates are then incubated at 37 degrees C for 18 hours. EGFP and DsRed signal are then detected using an Acumen eX3 Explorer fluorescent plate cytometer. All cells are dispensed in cell media containing EHAA (Quality Biologicals, MD), RPMI (Quality Biologicals, MD), Glutamine (Life Technologies, CA), Penicillin/Streptomycin (Quality Biologicals, MD), 2-ME (Sigma Aldrich, MO) and 10% FBS (Gemini Bioproducts, CA) .
row,SMILES,activation
1,CC1=NCCc2c1[nH]c1ccccc21.O=[N+]([O-])c1cc([N+](=O)[O-])c(O)c([N+](=O)[O-])c1,inactive: 0.0829%
2,Cc1ccc(C)c(NP(C)(=O)Oc2ccccc2)c1 (stereo not given),inactive: -2.65%
3,CP(=O)(Nc1cccc(Br)c1)Oc1ccccc1 (stereo not given),inactive: -0.866%
4,Cc1cc(C)cc(OP(C)(=O)Nc2ccccn2)c1 (stereo not given),inactive: -0.444%
5,CCOC(=O)c1ccc(NP(C)(=O)Oc2cc(C)cc(C)c2)cc1 (stereo not given),inactive: -0.365%
6,Cc1cc(C)cc(OP(C)(=O)Nc2ccc(C)cc2C)c1 (stereo not given),inactive: -2.48%
7,COc1ccccc1OP(C)(=O)Nc1cccc(Br)c1 (stereo not given),inactive: -0.331%
8,Cc1nc2ccc3ccccc3c2s1.O=[N+]([O-])c1cc([N+](=O)[O-])c(O)c([N+](=O)[O-])c1,inactive: -0.75%
9,O=[N+]([O-])c1cc([N+](=O)[O-])c(-c2cnn(-c3ccccc3)c2)c([N+](=O)[O-])c1,inactive: 8.43%
10,CN(Cc1cccnc1)C(=O)COc1ccc(Cl)c(Cl)c1.O=[N+]([O-])c1cc([N+](=O)[O-])c(O)c([N+](=O)[O-])c1,inactive: 0.313%
11,O=[N+]([O-])c1cc([N+](=O)[O-])c(-n2nnc3ccccc32)c([N+](=O)[O-])c1,inactive: -0.0544%
12,COc1ccc(-c2ccccn2)cc1.O=[N+]([O-])c1cc([N+](=O)[O-])c(O)c([N+](=O)[O-])c1,inactive: -0.366%
13,CP(=O)(Nc1ccc(SC(F)(F)F)cc1)Oc1ccccc1 (stereo not given),inactive: -5.49%
14,CCCOc1ccc(NP(C)(=O)Oc2ccc(Cl)cc2)cc1 (stereo not given),inactive: -0.933%
15,CN1CCCCC1COC(=O)C1(O)c2ccccc2CCc2ccccc21 (stereo not given),inactive: 0.712%
16,COc1ccccc1OP(C)(=O)Nc1c(C)cccc1C (stereo not given),inactive: -2.99%
17,O=[N+]([O-])c1cc([N+](=O)[O-])c(Nc2nnnn2CCO)c([N+](=O)[O-])c1,inactive: -3.37%
18,CC1=C2N=C(C=C3N=C(C(C)=C4[N-][C@@](C)([C@@H]5N=C1[C@](C)(CCC(=O)NC[C@@H](C)OP(=O)([O-])O[C@H]1[C@@H](O)[C@@H](n6cnc7cc(C)c(C)cc76)O[C@@H]1CO)[C@H]5CC(N)=O)[C@@](C)(CC(N)=O)[C@@H]4CCC(N)=O)[C@@](C)(CC(N)=O)[C@@H]3CCC(N)=O)C(C)(C)[C@@H]2CCC(N)=O.[C-]#N.[Co+3],inactive: 0.069%
19,CP(=O)(Nc1ccccc1Br)Oc1ccccc1 (stereo not given),inactive: 0.433%
20,COc1ccccc1OP(C)(=O)Nc1ccccc1 (stereo not given),inactive: -0.0939%
21,CP(=S)(Nn1cnnc1)Oc1ccccc1 (stereo not given),inactive: 0.716%
22,CP(=O)(Nc1ccccn1)Oc1ccc(Cl)cc1 (stereo not given),inactive: 0.721%
23,O=[N+]([O-])c1cc([N+](=O)[O-])c(O)c([N+](=O)[O-])c1.c1ccc(Oc2ccncc2)cc1,inactive: -1.46%

row,SMILES,activation
1,CCOC(=O)c1ccc(NP(C)(=O)Oc2ccc(OC)cc2)cc1 (stereo not given),inactive: -0.115%
2,CCOP(C)(=S)SCC(=O)NC(C)C(=O)O (stereo not given),inactive: -2.23%
3,Cc1cc(C)cc(OP(C)(=O)Nc2ccc(SC(F)(F)F)cc2)c1 (stereo not given),inactive: -4.9%
4,CCc1ccc(OP(C)(=O)N2CCN(c3ccc([N+](=O)[O-])cc3)CC2)cc1 (stereo not given),inactive: -0.47%
5,CP(=O)(NC(=O)Nc1ccccc1)Oc1ccccc1 (stereo not given),inactive: -1.91%
6,CP(=O)(Oc1ccccc1)OC(c1ccccc1)C(F)(F)F (stereo not given),inactive: 0.319%
7,CP(=O)(Nc1ccc(SC(F)(F)F)cc1)Oc1ccc(Cl)cc1 (stereo not given),inactive: -0.428%
8,Cc1cccc(C)c1OP(C)(=O)Nc1ccc(SC(F)(F)F)cc1 (stereo not given),inactive: 0.038%
9,COc1ccccc1-c1ccccn1.O=[N+]([O-])c1cc([N+](=O)[O-])c(O)c([N+](=O)[O-])c1,inactive: -0.684%
10,CCN(CC)CCCOC(=O)C(O)(c1ccccc1)c1ccccc1,inactive: 0.923%
11,Cc1cc(C)cc(OP(C)(N)=O)c1 (stereo not given),inactive: 0.154%
12,COc1ccc(OP(C)(=O)Nc2cccc(F)c2)cc1 (stereo not given),inactive: -1.83%
13,COc1ccccc1OP(C)(=O)Nc1cc(Cl)ccc1C (stereo not given),inactive: -0.838%
14,Cc1ccc(NP(C)(=O)Oc2ccccc2)c(C)c1 (stereo not given),inactive: -2.14%
15,COc1ccccc1OP(C)(=O)Nc1ccc(C)cc1 (stereo not given),inactive: 0.81%
16,CCOC(=O)c1ccc(NP(C)(=O)Oc2ccccc2)cc1 (stereo not given),inactive: 0.921%
17,O=[N+]([O-])c1ccc2c(c1)C=Nc1ccccc1O2,inactive: -3.5%
18,Cc1cccc(C)c1OP(C)(N)=O (stereo not given),inactive: -1.06%
19,CC(C)(C)c1ccc(OP(C)(=O)Nc2ccc(SC(F)(F)F)cc2)cc1 (stereo not given),inactive: -0.662%
20,O=[N+]([O-])c1cc([N+](=O)[O-])c(Nc2cccnc2)c([N+](=O)[O-])c1,inactive: -0.465%
21,CP(=O)(OCCOc1ccccc1)OCCOc1ccccc1,inactive: -0.314%
22,CP(=O)(Nc1ccc(Cl)cc1Cl)Oc1ccccc1 (stereo not given),inactive: -1.49%
23,CCCCCCCCCCCCCCCC1C[N+](C)(C)CCOP(C)(=O)O1 (stereo not given),inactive: -8.12%

row,SMILES,activation
1,COc1ccccc1OP(C)(=O)Nc1ccc(C)c(C)c1 (stereo not given),inactive: 0.311%
2,COc1ccc(OP(C)(=O)Nc2ccccc2Br)cc1 (stereo not given),inactive: 2.46%
3,Cc1cc(C)cc(OP(C)(=O)Nc2cccc(C(F)(F)F)c2)c1 (stereo not given),inactive: 0.723%
4,COc1ccccc1OP(C)(=O)Nc1ccc(C)cc1C (stereo not given),inactive: 0.272%
5,CP(=O)(Nc1ccccn1)Oc1ccccc1 (stereo not given),inactive: -1.51%
6,CCc1ccc(OP(C)(=O)O)cc1,inactive: -0.136%
7,O=[N+]([O-])c1cc([N+](=O)[O-])c(Nc2ccccn2)c([N+](=O)[O-])c1,inactive: -0.9%
8,Cc1c(NP(C)(=O)Oc2ccc(C(C)C)cc2)c(=O)n(-c2ccccc2)n1C (stereo not given),inactive: -1.36%
9,COc1ccc(OP(C)(=O)Nc2ccccn2)cc1 (stereo not given),inactive: -2.13%
10,CN(C)CCOC(=O)C(O)(c1ccccc1)C1CCCC1 (stereo not given),inactive: 1.15%
11,COc1ccccc1OP(C)(=O)Nc1ccc(Br)cc1 (stereo not given),inactive: -1.99%
12,CN(C)C(=O)c1c([N+](=O)[O-])cc([N+](=O)[O-])cc1[N+](=O)[O-],inactive: -0.351%
13,CC(C)(C)c1ccc(OP(C)(=O)O)cc1,inactive: 0.563%
14,COc1ccccc1OP(C)(=O)Nc1ccccc1Br (stereo not given),inactive: -0.972%
15,CP(=O)(Nc1ccc(Cl)cc1)Oc1ccc(F)cc1 (stereo not given),inactive: 1.61%
16,O=C(OCCCN1CCCC1)C(O)(c1ccccc1)C1CCCCC1 (stereo not given),inactive: 0.406%
17,COc1ccccc1OP(C)(=O)Nc1c(C)n(C)n(-c2ccccc2)c1=O (stereo not given),inactive: -0.62%
18,CCc1ccc(OP(C)(=O)Nc2cccnc2)cc1 (stereo not given),inactive: -0.669%
19,CP(=O)(Oc1ccccc1)N1CCOC1=O (stereo not given),inactive: 1.61%
20,COc1ccc(OP(C)(=O)Nc2ccc(Br)cc2)cc1 (stereo not given),inactive: 0.511%
21,CCN(CC)CC(O)COC(=O)C(O)(c1ccccc1)C1CCCCC1 (stereo not given),inactive: -1.89%
22,CCOC(=O)c1ccc(NP(C)(=O)Oc2ccc(Cl)cc2)cc1 (stereo not given),inactive: -2.07%
23,CP(=O)(OC12CC3CC(CC(C3)C1)C2)OC12CC3CC(CC(C3)C1)C2,inactive: -0.597%

row,SMILES,activation
1,Nc1ccc2c(ccc3cccnc32)n1.O=[N+]([O-])c1cc([N+](=O)[O-])c(O)c([N+](=O)[O-])c1,inactive: -0.666%
2,Cc1c(C(c2ccc3c(c2)OCO3)c2c(C)n(C)n(-c3ccccc3)c2=O)c(=O)n(-c2ccccc2)n1C.O=[N+]([O-])c1cc([N+](=O)[O-])c(O)c([N+](=O)[O-])c1,inactive: -1.36%
3,O=[N+]([O-])c1ccc(OP2(=O)COCCO2)cc1 (stereo not given),inactive: -0.0934%
4,Cc1cc(-c2cccc3ccccc23)c(C)cn1.O=[N+]([O-])c1cc([N+](=O)[O-])c(O)c([N+](=O)[O-])c1,inactive: -2.46%
5,CN(C)CCOC(=O)C(O)(c1ccccc1)C1CCCCC1 (stereo not given),inactive: -0.18%
6,COc1ccc(NP(C)(=O)Oc2ccccc2OC)cc1 (stereo not given),inactive: -1.21%
7,COc1ccc(OP(C)(=O)Nc2cccc(Br)c2)cc1 (stereo not given),inactive: -2.66%
8,Cc1ccccc1NP(C)(=O)Nc1ccccc1C,inactive: 0.399%
9,O=[N+]([O-])c1cc([N+](=O)[O-])c(C(F)(F)F)c([N+](=O)[O-])c1O,inactive: 0.801%
10,CP(=O)(Nc1ccc2c(c1)OCCO2)Oc1ccccc1 (stereo not given),inactive: 1.19%
11,CCOP(C)(=S)SCC(=O)NC(C)(CC)C(=O)O (stereo not given),inactive: -0.479%
12,CP(=O)(Nc1ccc(SC(F)(F)F)cc1)Oc1ccc(F)cc1 (stereo not given),inactive: 0.293%
13,O=C(OCCN1CCN(CCOCc2ccccc2)CC1)C(O)(c1ccccc1)c1ccccc1,inactive: -0.0483%
14,CP(=O)(Nc1ccccc1F)Oc1ccccc1 (stereo not given),inactive: -1.84%
15,CC(C)c1ccc(OP(C)(=O)Nc2ccc(SC(F)(F)F)cc2)cc1 (stereo not given),inactive: -3.38%
16,CP(=O)(Nc1ccccc1)Oc1ccc(F)cc1 (stereo not given),inactive: -1.09%
17,CCCCCOc1ccc(NP(C)(=O)Oc2ccc(Cl)cc2Cl)cc1 (stereo not given),inactive: -3.84%
18,Cc1c([N+](=O)[O-])cc([N+](=O)[O-])c(Br)c1[N+](=O)[O-],inactive: 2%
19,CCN(CC)CCCOC(=O)C(O)(c1ccccc1)C1CCCCC1 (stereo not given),inactive: 0.0212%
20,CCOC(=O)c1ccc(NP(C)(=O)Oc2ccc(F)cc2)cc1 (stereo not given),inactive: 0.395%
21,COc1ccc(OP(C)(=O)Nc2ccc(SC(F)(F)F)cc2)cc1 (stereo not given),inactive: -0.79%
